This note sets out measurements from BindingDB's records for PubMed 9536032 (Sibia Neurosciences, 1998).

Amino acid sequences for entries named in this document (tags omitted). A change or cut given only in a name is not applied to a line headed by its entry.
UniProt P19492: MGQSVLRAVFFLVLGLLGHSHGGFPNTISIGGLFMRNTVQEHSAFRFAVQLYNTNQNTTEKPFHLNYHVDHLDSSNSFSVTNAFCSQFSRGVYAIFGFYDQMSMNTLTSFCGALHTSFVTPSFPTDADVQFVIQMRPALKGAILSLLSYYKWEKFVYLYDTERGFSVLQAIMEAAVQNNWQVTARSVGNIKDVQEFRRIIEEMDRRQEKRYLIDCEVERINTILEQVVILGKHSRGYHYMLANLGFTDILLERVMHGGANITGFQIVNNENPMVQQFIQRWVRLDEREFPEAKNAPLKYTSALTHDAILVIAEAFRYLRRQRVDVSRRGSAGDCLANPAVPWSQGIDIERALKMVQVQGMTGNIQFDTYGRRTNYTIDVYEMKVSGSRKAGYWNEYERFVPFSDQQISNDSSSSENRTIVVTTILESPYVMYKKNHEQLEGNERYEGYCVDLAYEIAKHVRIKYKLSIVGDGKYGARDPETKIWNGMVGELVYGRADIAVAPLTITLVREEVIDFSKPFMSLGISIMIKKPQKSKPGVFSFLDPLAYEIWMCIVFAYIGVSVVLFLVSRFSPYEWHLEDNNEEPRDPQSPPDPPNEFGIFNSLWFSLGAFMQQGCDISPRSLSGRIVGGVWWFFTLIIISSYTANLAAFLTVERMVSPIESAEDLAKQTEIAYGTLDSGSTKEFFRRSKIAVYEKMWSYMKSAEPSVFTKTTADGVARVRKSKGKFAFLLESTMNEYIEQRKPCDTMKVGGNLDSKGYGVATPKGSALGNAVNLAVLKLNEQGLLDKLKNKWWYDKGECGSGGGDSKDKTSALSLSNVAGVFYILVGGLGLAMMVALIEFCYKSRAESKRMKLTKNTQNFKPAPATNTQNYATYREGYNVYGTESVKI

The target in this test is Glutamate receptor 3 (Rattus norvegicus, UniProt P19492).

One may read the Ki as a measure of affinity in units of concentration, obtained from inhibition or displacement. A low value points to higher affinity. In the case of `Cc1onc(O)c1C[C@H](N)C(=O)O` [glutamate-AMPA], the affinity corresponds to a Ki of 14 nM. Turning to `Cc1onc(O)c1CC(N)C(=O)O` (stereo not drawn) [(RS)-2-amino-3-(3-hydroxy-5-methylisoxazol-4-yl)-propionicacid], the inhibition constant Ki worked out at 17 nM.
